Yeast mating assay 1: variants of the scFv Ab-14

Target peptide (SARS-CoV-2 spike, HR2 region): PDVDLGDISGINAS

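The library (AAYL49) carries one to three amino acid substitutions per variant, with no insertions or deletions. Affinity was read by AlphaSeq, a pooled yeast mating assay with surface-displayed partners. Pairs that bind mate more often; barcode pairs of the diploids are counted by sequencing. Read counts were normalised to the haploid input and turned into Kd by a linear fit to BCL2-family pairs of known affinity, for each replicate. Mating was done three times.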

Parent scFv Ab-14: VH joined to VL by a 15-residue (Gly4Ser)3 linker. Changes lie in the heavy chain CDRs alone.
VH: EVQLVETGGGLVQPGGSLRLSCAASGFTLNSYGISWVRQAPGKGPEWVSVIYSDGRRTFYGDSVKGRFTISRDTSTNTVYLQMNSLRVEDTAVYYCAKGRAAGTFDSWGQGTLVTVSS
VL: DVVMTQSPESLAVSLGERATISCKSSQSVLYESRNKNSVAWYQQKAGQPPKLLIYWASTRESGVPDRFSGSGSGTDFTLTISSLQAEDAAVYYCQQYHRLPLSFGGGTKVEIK

The parent's heavy chain CDRs are GFTLNSYGIS, VIYSDGRRTFYGDSVK, GRAAGTFDS; each variant's own CDRs replace them letter for letter.
Values are log10 of the apparent Kd in nM; lower means stronger binding.
"nd" means that the variant was in the library but no mating with the target was seen in that replicate; the authors take this as a sign of poor binding, and no number exists.
Parent in this assay: reference entry 0.65, copy in this library 4.11 (one replicate of three).
Background: pairings of library AAYL49 with three empty control strains gave a value in 15% of cases (median 4.06, 5th percentile 2.83). Values in that range, when seen in few replicates, are hard to tell from nonspecific mating. For each scFv, signals with the empty controls are counted beside the result, with their mean in brackets.

CDR-H1	CDR-H2	CDR-H3	replicates, log10 nM	empty controls
GFTLYEYGIS	WIYSDGRRTFYGDSVK	GRAAGTFDS	nd / nd / nd	2/9 (4.91)
GFTLNSYGIS	VIYMWGRRTFYGDSVK	GRAPGTFDS	nd / nd / nd	0/9
GGTLNTYGIS	VIYSDGRRTFYGDSVK	GRAAGTFDS	1.06 / 1.23 / 1.31	3/9 (4.58)
GFALNSYGKS	VIYSDGRRTFGGDSVK	GRAAGTFDS	nd / nd / nd	0/9
VFTLNSYGIS	VIYSDGRRMFYGDSYK	GRAAGTFDS	nd / nd / nd	0/9
GFTLNSYGIT	VIYSDGRRTRYGDSVK	PRAAGTFDS	nd / nd / nd	2/9 (4.14)
GFTLNQYGIS	VIYSDGRRMFYGDLVK	GRAAGTFDS	2.78 / 2.24 / 2.85	2/9 (4.50)
GFTLSSYGIP	VIYSDGRRTLYGDSVK	GRAAGTFDS	nd / nd / nd	0/9
GFTLNSYGIS	VIYSSGRRTFYGDSVK	GRQAGTFDS	nd / 3.46 / nd	3/9 (4.51)
GFTLNSYGIS	VIYSDGRRTFYGDSVK	WRDAGAFDS	nd / nd / nd	1/9 (3.00)
GFTLNSYGIS	VVYKGGRRTFYGDSVK	GRAAGTFDS	nd / nd / nd	0/9
GFILNSYGIY	VIYSDGRRTFYEDSVK	GRAAGTFDS	3.76 / nd / nd	1/9 (3.98)
GFTLNFYGIS	VIYSTGRRTFYEDSVK	GRAAGTFDS	nd / nd / nd	2/9 (3.94)
GSTLNSYGIS	VIYSDGRRTFYADSVK	GRAPGTFDS	1.18 / 1.33 / 1.30	1/9 (4.23)
GFTLNSYGRS	VIYSDGRRTFYGDSVK	GRASGTFDS	nd / 3.41 / 4.91	1/9 (3.59)
GFTLNSYGIS	FIYSDGRRTNYGDSVK	GRAANTFDS	nd / 3.65 / nd	2/9 (3.92)
GFTLNSYGIS	VITSDGWRTFYGDSVK	GRKAGTFDS	nd / nd / nd	0/9
FFTLNSYGIS	VIYSDGRRTEYGDSVK	GRAAGTEDS	nd / nd / nd	0/9
GFTLNSYGIS	VIYSDGRRCFYGNSVK	GNAAGTFDS	1.90 / 2.15 / 2.41	3/9 (3.99)
GFTLNSYGIS	VIYSDGRRSFYGDSVK	GRAAGTRDS	2.10 / 1.89 / 2.35	0/9
GFTLNSYGIS	VGYSTGRRTFYGDSVK	GRAAGTFDS	nd / nd / nd	0/9
GFTLNSYGIS	VIDSDGRRTFYGDSVK	QRAAGTFDS	nd / 5.70 / 6.42	5/9 (4.46)
GFTLNSYGIT	VCYSDGRRTFYGDSVK	GLAAGTFDS	nd / nd / nd	2/9 (4.45)
GFTLNAYGWQ	VIYSDGRRTFYGDSVK	GRAAGTFDS	nd / nd / nd	0/9
GFTLNSYGIS	VIYSDGRRTAYGDSVK	GRYAGTFDS	nd / nd / nd	2/9 (2.64)
GFTLNSYGIS	VILSDWRRGFYGDSVK	GRAAGTFDS	nd / nd / nd	0/9
GDTLNSYGIS	VIYSCGRRTFYGPSVK	GRAAGTFDS	nd / 4.36 / nd	1/9 (4.84)
GFTLNSYGTS	VIYPDGRRTFPGDSVK	GRAAGTFDS	nd / nd / nd	2/9 (4.13)
GFTLNSYGIS	VIYSDGRRTFVGDSVK	GRAAGTRDS	3.21 / 3.59 / 3.24	0/9
GFTLNSYGIS	VIYSDGRRFFYGDSVK	GRAAGTFDS	nd / nd / nd	0/9
NPTLNSYGII	VIYSDGRRTFYGDSVK	GRAAGTFDS	nd / nd / nd	0/9
GFTRPSYGIT	VIYSDGRRTFYGDSVK	GRAAGTFDS	nd / nd / nd	0/9
GFTLNSYGII	VIYSDARRTMYGDSVK	GRAAGTFDS	nd / nd / 5.15	0/9
GFTLNSYGIS	VIYSDGRITFYGDEVK	GRAAGHFDS	nd / nd / nd	0/9
GFTLNSYSIS	VIYSDGRRTFYGDSVK	GRAHGTFDS	nd / nd / nd	2/9 (3.65)
GFTLNSYGIS	VIYSCGRRTFYGNSVK	WRAAGTFDS	nd / nd / nd	1/9 (3.80)
KFTLNSYGIS	VIYSDGRRTFYKDSVK	GRAAGTFDG	0.82 / 1.26 / 1.30	1/9 (2.75)
GFTLNIYGDS	VIYSDGRRTFLGDSVK	GRAAGTFDS	nd / nd / nd	0/9
GFQSNSYGIS	VIVSDGRRTFYGDSVK	GRAAGTFDS	nd / 1.92 / nd	0/9

Excerpt, the final 4 entries:

CDR-H1,CDR-H2,CDR-H3,"replicates, log10 nM",empty controls
GFTLNSYGIS,VIYSCGRRTFYGNSVK,WRAAGTFDS,nd / nd / nd,1/9 (3.80)
KFTLNSYGIS,VIYSDGRRTFYKDSVK,GRAAGTFDG,0.82 / 1.26 / 1.30,1/9 (2.75)
GFTLNIYGDS,VIYSDGRRTFLGDSVK,GRAAGTFDS,nd / nd / nd,0/9
GFQSNSYGIS,VIVSDGRRTFYGDSVK,GRAAGTFDS,nd / 1.92 / nd,0/9

The measurements come from Engelhart et al. 2022 (doi:10.1038/s41597-022-01779-4) through the FLAb antibody collection.